The text below walks through data of PubChem BioAssay AID652106 (National Center for Advancing Translational Sciences (NCATS), 2013).

The list shows a part of the results, in another mix than the full data. The source made the active and inactive calls. Calls come from the whole dose curve; as a rule, active = well fitted activation curve with a large enough effect; inconclusive = small, poorly fitted or top-dose-only effect; inactive = no such curve, though single readings can be large or run the other way.

The assay can be described thus: qHTS of alpha-syn Inhibitors. Note: % of control where 0% means no effect; nearly all actives have a fitted effect of over 65% in size. Particulars: Yeast expressing alpha-synuclein, BacTiter-Glo, 24 h; at 46.1 µM (top of the series) unless noted. The text has this:
The goal of this project is to identify new chemical probes capable of reversing the toxicity associated with the Parkinson disease-related protein, alpha-synuclein. Compounds will be selected on their ability to restore growth in yeast cells expressing toxic levels of alpha-synuclein. These compounds will provide a complementary approach to deciphering the tangled mechanisms of toxicity and protection that we have uncovered through genome-wide genetic screens and are beginning to uncover in a large-scale proteomics analysis with mass spectroscopy. To this end, a miniaturized assay was developed to be screened against the Molecular Libraries Small Molecule Repository (MLSMR) to discover alpha-synuclein inhibitors. Please note that in the set-up this yeast-based assay compounds that inhibit as alpha-syn, have a read-out as activators. NIH Chemical Genomics Center [NCGC] NIH Molecular Libraries Probe Centers Network [MLPCN] MLPCN Grant: NS060957 Assay Submitter (PI): Susan Lindquist, Whitehead Institute/MIT
Dispense 2.5 microL yeast galactose medium per 1536-well plate, pin compound, dispense 2.5 microL alpha-synuclein expressing yeast in galactose medium at OD600=0.02 (pregrown in raffinose medium to mid-log phase) per well, incubate for 24 hr at 30 deg C, and cell growth will be measured using 5 microL of Bactiter/Glo reagent to entire plate and read using Luminescence Protocol in ViewLux.
In general terms: Quantitative high-throughput screening tests each substance at several concentrations.
`CCCOc1ccc(C(=O)NCC2(N(C)C)CCCCC2)cc1`: the growth rescue (activation) is inactive: 4.07%.
The result for `O=c1[nH]c2ccccc2n1C1CCN(C(c2cc3ccccc3o2)c2nnnn2C2CCCC2)CC1` (stereo unspecified) reads inactive: 5.53%; that for `ClCCN(CCCl)c1ccccc1`, inactive: 1.09%; that for `ClCCN(CCCl)c1ccc(C=C2C=CC=C2)cc1`, inactive: 9.8%.
As for `O=C(O)C1(Nc2ccccc2)CCN(Cc2ccccc2)CC1`, the growth rescue (activation) was inactive: 3.68%.
To `CC(C)(C)OC(=O)N1CCC(Nc2ccccc2)CC1` belongs inactive: 11.8%; to `CN1CCC(Nc2ccc(F)c(Cl)c2)CC1`, inactive: 1.21%.
To `CCOc1ncccc1C(=O)NCC1(N2CCOCC2)CCCCC1` belongs inactive: -6.07%; to `CN1CCC(Nc2ccc(Cl)cc2)CC1`, inactive: 2.12%.
For `CCC(CO)(C(=O)OC1CN2CCC1CC2)c1ccccc1` (stereo unspecified), the growth rescue (activation) was inactive: 2.65%.
For `COc1cccc(C(=O)N(c2cc(C)cc(C)c2)C2CCN(C(=O)OC(C)(C)C)CC2)c1`, the growth rescue (activation) was inactive: 0.671%.
To `COc1cc(C(=O)NCC2(N3CCOCC3)CCCCC2)cc(OC)c1OC` belongs inactive: 0.0685%; to `COc1cc(OC)cc(C(=O)NCC2(N3CCOCC3)CCCCC2)c1`, inactive: -0.899%; to `COc1cccc(C(c2nnnn2C2CCCC2)N2CCC(n3c(=O)[nH]c4ccccc43)CC2)c1OC` (stereo unspecified), inactive: 1.3%.
The result for `Cc1ccc(NC2(C#N)CCN(Cc3ccccc3)CC2)cc1` reads inactive: 6.31%; that for `Cc1ccc(Nc2c([N+](=O)[O-])cc([N+](=O)[O-])cc2[N+](=O)[O-])cc1`, inactive: 1.4%; that for `Fc1ccccc1NC1CCN(Cc2ccccc2)CC1`, inactive: -0.582%.
As for `Cc1ccc(C(=O)NCC2(N3CCCCC3)CCCCC2)o1`, the growth rescue (activation) was inactive: 1.33%.
The result for `O=c1[nH]c2ccccc2n1C1CCN(C(c2ccnc3ccccc23)c2nnnn2C2CCCCC2)CC1` (stereo unspecified) reads inactive: 3.05%; that for `COc1cc(OC)cc(C(=O)NCC2(N3CCCCC3)CCCCC2)c1`, inactive: 1.87%; that for `CCC(c1nnnn1C1CCCCC1)N1CCC(n2c(=O)[nH]c3ccccc32)CC1` (stereo unspecified), inactive: 2.46%.
Regarding `CC(=O)N(c1ccccc1)C1CCNCC1`, the growth rescue (activation) was inactive: 2.85%.
On to `COc1cccc(C(c2nnnn2C2CCCCC2)N2CCC(n3c(=O)[nH]c4ccccc43)CC2)c1OC` (stereo unspecified), for which the growth rescue (activation) is inactive: -0.27%.
To `Cn1c(=O)[nH]cc(N(CCCl)CCCl)c1=O` belongs inactive: -5.72%; to `CN(C)c1ccc(C(=O)NCC2(N3CCCCC3)CCCCC2)cc1`, inactive: 2.29%; to `O=C(NCC1(N2CCCCC2)CCCCC1)c1ccco1`, inactive: 1.31% [at 1.84 µM].
As to `CC(C)(C)n1nnnc1C(c1ccnc2ccccc12)N1CCC(n2c(=O)[nH]c3ccccc32)CC1` (stereo unspecified), the growth rescue (activation) was inactive: 4.3%.
The result for `COc1ccc(C(c2nnnn2C2CCCCC2)N2CCC(n3c(=O)[nH]c4ccccc43)CC2)cc1` (stereo unspecified) reads inactive: 0.129%; that for `CCN1CCC(Nc2cccc(F)c2)CC1`, inactive: 3.2%; that for `Cc1ccccc1NC1(C#N)CCN(Cc2ccccc2)CC1`, inactive: -9.28%.
On to `CCOC(=O)C(CC)C1=NC(C)(C)Cc2ccccc21.O=[N+]([O-])c1cc([N+](=O)[O-])c(O)c([N+](=O)[O-])c1` (stereo unspecified), for which the growth rescue (activation) was inactive: 1.17%.
`CC(C)(C)OC(=O)N1CCC(N(C(=O)c2ccccc2)c2ccc(Cl)cc2)CC1`: the growth rescue (activation) is inactive: 15.2%.
To `O=C(NCC1(N2CCOCC2)CCCCC1)c1ccc([N+](=O)[O-])cc1` belongs inactive: 29.6%; to `O=C(NCC1(N2CCOCC2)CCCCC1)c1ccccc1[N+](=O)[O-]`, inactive: 1.82%; to `N#Cc1ccc(C(=O)NCC2(N3CCCCC3)CCCCC2)cc1`, inactive: 8.55%.
To `O=c1[nH]c2ccccc2n1C1CCN(C(c2ccccc2)c2nnnn2C2CCCC2)CC1` (stereo unspecified) belongs inactive: 1.85%.
The result for `CCCN1CCC(Nc2cc(OC)cc(OC)c2)CC1` reads inactive: -0.562%.
`Cc1cc(N(CCCl)CCCl)ccc1C=O`: the growth rescue (activation) is inactive: 7.43%.
The result for `O=C(NCC1(N2CCOCC2)CCCCC1)c1ccccc1` reads inactive: -1.7%.
The result for `c1ccc(CN2CCC(Nc3ccccc3)CC2)cc1` reads inactive: 5.54%; that for `CN(C)C1(CNC(=O)c2cccc(C#N)c2)CCCCC1`, inactive: 5.94%; that for `O=c1[nH]c2ccccc2n1C1CCN(C(c2ccnc3ccccc23)c2nnnn2C2CCCC2)CC1` (stereo unspecified), inactive: -0.561%.
In the case of `COc1ccc(C(=O)NCC2(N3CCOCC3)CCCCC2)cc1OC`, the growth rescue (activation) is inactive: -7.95%.
`O=Cc1ccc(N(CCCl)CCCl)cc1`: the growth rescue (activation) is inactive: -22.2%.
To `O=c1[nH]c2ccccc2n1C1CCN(C(c2cccs2)c2nnnn2C2CCCCC2)CC1` (stereo unspecified) belongs inactive: 5.78%; to `O=C(NCC1(N2CCOCC2)CCCCC1)c1cc(Br)ccc1Cl`, inactive: 14.2%.
